Assay results taken from patent US20250092067A1, “APT1 and APT2 Inhibitors and Uses Thereof” (Cornell University, priority 2021, published 2025).
Like-named read-outs stand apart in the source and are kept apart here.

Amino acid sequences for entries named in this document (tags omitted).
UniProt O95372, whole entry: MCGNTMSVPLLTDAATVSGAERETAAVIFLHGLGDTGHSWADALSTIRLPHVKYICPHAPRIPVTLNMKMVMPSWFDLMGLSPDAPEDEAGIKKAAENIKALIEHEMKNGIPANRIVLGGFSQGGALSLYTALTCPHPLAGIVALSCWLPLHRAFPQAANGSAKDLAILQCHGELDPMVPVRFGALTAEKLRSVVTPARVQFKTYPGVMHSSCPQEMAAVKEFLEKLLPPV
UniProt O75608, whole entry: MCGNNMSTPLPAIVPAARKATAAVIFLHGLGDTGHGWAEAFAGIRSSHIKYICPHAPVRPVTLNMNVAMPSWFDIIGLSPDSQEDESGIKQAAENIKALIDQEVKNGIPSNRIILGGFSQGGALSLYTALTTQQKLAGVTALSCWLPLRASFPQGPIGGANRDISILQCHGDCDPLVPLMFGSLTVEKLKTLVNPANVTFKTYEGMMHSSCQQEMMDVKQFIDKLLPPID

Experiments:
APT2 = APT2 (Homo sapiens, UniProt O95372); assay: APT2 enzymatic assay, resorufin acetate as fluorogenic substrate; assay type: biochemical
APT1 = APT1 (Homo sapiens, UniProt O75608); assay: APT1 enzymatic assay, resorufin acetate as fluorogenic substrate; assay type: biochemical
[1] = read-out: IC50 APT2, Table 3, class symbols
[2] = read-out: IC50 APT1, Table 3, class symbols
[3] = read-out: IC50 (μM) APT2, Table 2, class symbols
[4] = read-out: IC50 (μM) APT1, Table 2, class symbols
[5] = read-out: IC50 APT2, Table 4, class symbols
[6] = read-out: IC50 APT1, Table 4, class symbols

Row | Structure (SMILES) | IC50 (APT2; [1]) [µM] | IC50 (APT1; [2]) [µM] | other results
1 | COc1ccc(N2CCN(C(=O)c3cc4c(s3)-c3cc(OC)ccc3S(=O)(=O)C4)CC2)cc1 | 0.1 to 1 | > 40 | –
2 | COc1ccc(N2CCN(C(=O)c3cc4cc(O)c5ccccc5c4s3)CC2)cc1 [KW5130, (5-Hydroxynaphtho[1,2-b]thiophen-2-yl) (4-(4-methoxyphenyl)piperazin-1-yl) methanone] | – | – | IC50 (APT2; [3]): 1 to 40 µM; IC50 (APT1; [4]): > 40 µM
3 | O=C(c1cc2c(s1)-c1cc(F)ccc1S(=O)(=O)C2)N1CCN(c2ccc(C(F)(F)F)cc2)CC1 | > 40 | > 40 | –
4 | O=C(c1cc2c(s1)-c1ccc(O)cc1S(=O)(=O)C2)N1CCN(c2ccc(C(F)(F)F)cc2)CC1 | 0.1 to 1 | > 40 | –
5 | COc1ccc2c(c1)-c1sc(C(=O)N3CCN(c4ccc(C(F)(F)F)cc4)CC3)cc1CS2(=O)=O | 0.1 to 1 | > 40 | –
6 | CNc1ccc(N2CCN(C(=O)c3cc4c(s3)-c3ccccc3S(=O)(=O)C4)CC2)cc1 | – | – | IC50 (APT2; read-out: IC50 APT2, Table 3, class symbols, tested form: HCl): 1 to 40 µM; IC50 (APT1; read-out: IC50 APT1, Table 3, class symbols, tested form: HCl): > 40 µM
7 | COc1ccc(N2CCN(C(=O)c3cc4c(s3)-c3ccc(F)cc3S(=O)(=O)C4)CC2)cc1 | 0.1 to 1 | > 40 | –
8 | O=C(c1cc2c(s1)-c1ccccc1S(=O)(=O)C2)N1CCN(c2ccc(C(F)F)cc2)CC1 | > 40 | > 40 | –
9 | COc1ccc(N2CCN(C(=O)c3cc4c(s3)-c3ccccc3B(O)O4)CC2)cc1 | – | – | IC50 (APT2; [3]): 0.1 to 1 µM; IC50 (APT1; [4]): 0.1 to 1 µM
10 | COc1ccc(N2CCN(C(=O)c3cc4c(s3)-c3ccc(OC)cc3S(=O)(=O)C4)CC2)cc1 | 0.1 to 1 | > 40 | –
11 | COc1ccc(N2CCN(C(=O)c3cc4c(s3)-c3cc(N(C)C)ccc3S(=O)(=O)C4)CC2)cc1 | > 40 | > 40 | –
12 | O=C(c1cc2c(s1)-c1cc(Cl)ccc1S(=O)(=O)C2)N1CCN(c2ccc(C(F)(F)F)cc2)CC1 | 0.1 to 1 | > 40 | –
13 | O=C(CN1CCN(C(=O)c2ccco2)CC1)Nc1ccc(B(O)O)cc1 | – | – | IC50 (APT2; [3]): 0.1 to 1 µM; IC50 (APT1; [4]): 1 to 40 µM
14 | CNc1ccc2c(c1)-c1sc(C(=O)N3CCN(c4ccc(OC)cc4)CC3)cc1CS2(=O)=O | > 40 | > 40 | –
15 | COc1ccc(N2CCN(C(=O)c3ccc4cc(P(=O)(O)O)ccc4c3)CC2)cc1 | – | – | IC50 (APT2; [5]): > 40 µM; IC50 (APT1; [6]): > 40 µM
16 | N#Cc1ccc2c(c1)S(=O)(=O)Cc1cc(C(=O)N3CCN(c4ccc(C(F)(F)F)cc4)CC3)sc1-2 | > 40 | > 40 | –
17 | O=C(c1cc2c(s1)-c1ccccc1S(=O)(=O)C2)N1CCN(c2ccc(C(F)(F)F)cc2)CC1 | 0.1 to 1 | > 40 | –
18 | N#Cc1ccc(N2CCN(C(=O)c3cc4c(s3)-c3ccccc3S(=O)(=O)C4)CC2)cc1 | > 40 | > 40 | –
19 | O=C(c1cc2c(s1)-c1ccc(Cl)cc1S(=O)(=O)C2)N1CCN(c2ccc(C(F)(F)F)cc2)CC1 | 1 to 40 | > 40 | –
20 | CC(C)(C)c1ccc(N2CCN(C(=O)c3cc4c(s3)-c3ccccc3S(=O)(=O)C4)CC2)cc1 | 0.1 to 1 | > 40 | –
21 | COc1ccc(N2CCN(C(=O)c3cc4c(s3)-c3cc(F)ccc3S(=O)(=O)C4)CC2)cc1 | 0.1 to 1 | > 40 | –
22 | CCOP(=O)(OCC)c1ccc2cc(C(=O)N3CCN(c4ccc(OC)cc4)CC3)ccc2c1 | – | – | IC50 (APT2; [5]): > 40 µM; IC50 (APT1; [6]): > 40 µM
23 | O=C(c1cc2c(s1)-c1ccccc1S(=O)(=O)C2)N1CCN(c2ccc(F)cc2)CC1 | > 40 | > 40 | –
24 | N#Cc1ccc2c(c1)-c1sc(C(=O)N3CCN(c4ccc(C(F)(F)F)cc4)CC3)cc1CS2(=O)=O | 0.1 to 1 | > 40 | –
25 | COc1ccc(N2CCN(C(=O)c3cc4c(s3)-c3cc(C#N)ccc3S(=O)(=O)C4)CC2)cc1 | 0.1 to 1 | > 40 | –
26 | COc1ccc(N2CCN(C(=O)c3cc4c(s3)-c3ccc(C#N)cc3S(=O)(=O)C4)CC2)cc1 | 0.1 to 1 | > 40 | –
27 | O=C(CN1CCN(C(=O)c2ccco2)CC1)Nc1cccc(B(O)O)c1 | – | – | IC50 (APT2; [3]): 1 to 40 µM; IC50 (APT1; [4]): > 40 µM
28 | O=C(c1cc2c(s1)-c1cc(O)ccc1S(=O)(=O)C2)N1CCN(c2ccc(C(F)(F)F)cc2)CC1 | > 40 | > 40 | –
29 | COc1ccc(N2CCN(C(=O)c3cc4c(s3)-c3ccc(Cl)cc3S(=O)(=O)C4)CC2)cc1 | 0.1 to 1 | > 40 | –
